Test results taken from patent US20040219217A1, “Conjugates of polysaccharide polymers of natural origin” (priority 2001, published 2004).

Tests used:
[1] = dust of living environments equipped with the fabrics
[2] = household detergents, gas chromatographic determination of benzyl benzoate
[3] = normal environmental conditions

Substance | Quantity of acaricide per 100 g dust [1] | (1) Percentage of acaricide released into the washing liquor after washing with surfactants [2] [%] | (2) Percentage of acaricide released after exposure to air for 6 months (determined through measurement of the residual acaricide still present on the fibre) [3] [%]
cotton-CH2—NH-polylys-(NH—CO-PABA-benzylbenzoate)n [III.B.2.2.2.] | Absent | 2.0 | 0
cotton-CH═N-polylys-(NH—CO-PABA-benzylbenzoate)n [III.B.2.2.1.] | Traces | 28.0 | 22.0
cotton-CH═N-lys-NH—CO-PABA-benzylbenzoate [III.B.2.1.1.] | Significant traces | 60.0 | 42.0
cotton-CH2—NH-lys-NH—CO-PABA-benzyl benzoate [III.B.2.1.2.] | Absent | 18.0 | 14.0
